The values that follow come from PubChem BioAssay AID2774 (Circadian Research, Kay Laboratory, University of …, 2010).

Only a part is listed here, and it is no random draw. Active and inactive are the calls of the source. How the calls were made is not given here.

A short description of the assay: compounds altering circadian rhythm period length – cell-based, LOPAC library, luminescence reporter (AID 2774).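 Further: values are relative to mean of DMSO wells on each plate.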 As to conditions: circadian reporter cells, at 7 µM, actives lie on both sides.
As for `N#[O+].[C-]#N.[C-]#N.[C-]#N.[C-]#N.[C-]#N.[Fe+2].[Na+].[Na+]`, the period change is inactive: -0.045 h.
